Patent US10525030B2 (priority 2013, dated 2020)

system: MES test (electrical stimulus through corneal electrodes); test: Anti-excitation activity using MES test; assay type: in vivo, male ICR mice; settings: mice, injection amount 50 mg/kg; percentage of activity compared to the vehicle only

| SMILES | MES test(po) Protection % |
| --- | --- |
| C[C@H](OC(N)=O)[C@@H](O)c1ccccc1I [Compound 65, 1-(2-iodophenyl)-(S)-1-hydroxypropyl-(S)-2-carbamate] | 50 ^a(100%) |
| C[C@H](OC(N)=O)[C@@H](O)c1ccccc1F | 50 ^a(100%) |

same assay, conditions: mice, injection amount 100 mg/kg; percentage of activity compared to the vehicle only

| SMILES | MES test(po) Protection % |
| --- | --- |
| CCCC[C@H](OC(N)=O)[C@@H](O)c1ccc(Cl)cc1Cl | 100 ^a(25%) |
| CCCC[C@H](OC(N)=O)[C@@H](O)c1c(Cl)cccc1Cl | 100 ^a(75%) |
| CCC(OC(N)=O)C(O)c1ccccc1Cl (racemic) | 100 ^a(100%) |
| CCCC[C@H](OC(N)=O)[C@@H](O)c1ccccc1Cl | 100 ^a(75%) |
| CC[C@H](OC(N)=O)[C@@H](O)c1ccccc1I [Compound 67, 1-(2-iodophenyl)-(S)-1-hydroxybutyl-(S)-2-carbamate] | 100 ^a(100%) |

same assay, conditions: mice, injection amount 200 mg/kg; percentage of activity compared to the vehicle only

| SMILES | MES test(po) Protection % |
| --- | --- |
| CCCC[C@@H](OC(N)=O)[C@H](O)c1ccccc1Cl | 200 ^a(75%) |
| CCCCC(OC(N)=O)C(O)c1ccccc1Cl (racemic) | 200 ^a(100%) |
